From ChEMBL document CHEMBL3739346, “In silico study on aging and reactivation processes of tabun conjugated AChE” (2015) come the findings set out here.

One may read the logP as a log measure of how a compound divides between an organic and an aqueous phase. Lower therefore signals lower lipophilicity.

Each structure is given as a SMILES string.

This data set is described as follows: Octanol-water partition coefficient, log P of the compound.

Turning to `N/C(=N\O)c1ncccc1O`, the logP was -0.14.
